Measurements as given in PubChem BioAssay AID1347077 (National Center for Advancing Translational Sciences (NCATS), 2019).
The list shows a part of the results, in another mix than the full data. Active and inactive are the calls of the source. Calls follow the shape of the dose curve; as a rule, active = well fitted activation curve with a large enough effect; inconclusive = small, poorly fitted or top-dose-only effect, or another doubt; inactive = no such curve, though single readings can be large or run the other way.

By UniProt entry, the sequences of proteins in these tests, tags left out.
UniProt P07550, whole entry: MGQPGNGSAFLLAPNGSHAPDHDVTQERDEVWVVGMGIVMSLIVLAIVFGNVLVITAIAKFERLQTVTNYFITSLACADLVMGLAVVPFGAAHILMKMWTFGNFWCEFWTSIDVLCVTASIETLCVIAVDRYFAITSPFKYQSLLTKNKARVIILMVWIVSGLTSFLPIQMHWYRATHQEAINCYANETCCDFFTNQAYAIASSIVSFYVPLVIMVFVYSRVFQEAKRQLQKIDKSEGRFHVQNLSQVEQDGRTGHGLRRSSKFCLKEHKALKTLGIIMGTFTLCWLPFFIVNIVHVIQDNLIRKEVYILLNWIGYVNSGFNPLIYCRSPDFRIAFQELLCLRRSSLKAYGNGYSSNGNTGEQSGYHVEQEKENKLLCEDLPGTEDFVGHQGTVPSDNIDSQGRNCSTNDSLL

Biological target: Beta-2 adrenergic receptor (Homo sapiens) (UniProt P07550)
Test: qHTS assay of beta-arrestin-biased ligands of beta2-adrenergic receptor: NCGC Sytravon Library Screen;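 also: 0% = DMSO and full agonism = EC100 isoproterenol or metaproterenol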
Details: HTLA Tango cells, beta-arrestin recruitment, luciferase luminescence, 18 h; at 46.1 µM (top of the series)
From the text: The concept of biased agonism is an emerging concept of molecular pharmacology which proposes that seven transmembrane receptors (7TMRs) or G protein-coupled receptors (GPCRs), exist in multiple signaling conformations and complexes and that ligands (either agonists or antagonists) can induce signaling biased responses for distinct signal transduction cascades. […] Furthermore, accumulating evidence over the last decade has drawn attention to a novel function of beta-arrestins as signal transducers that scaffold various signaling molecules upon activation of 7TMRs. […] This beta-arrestin-biased signaling presumably leads to distinct physiological outcomes from those by G protein activation. Additionally, the active receptor conformations which prefer on this beta-arrestin signaling are likely different from those activating G protein signaling. […] The goal of this screening project will be to discover and optimize novel beta-arrestin-biased ligands for beta2-AR signaling. A luminescent cell-based assay for beta2-AR-mediated agonism, known as the Tango assay, has been validated in which ligand binding of a recombinant beta2-AR and subsequent recruitment of a recombinant beta-arrestin lead to the release of the transcriptional activator tTA, which upregulates transcription of a tTA-responsive luciferase gene. […] Compounds from the NCGC Sytravon Library collection were screened as a concentration-titration series that ranged from 46 microM to 0.6 nM. NIH Molecular Libraries Probe Production Network [MLPCN] NIH Chemical Genomics Center [NCGC] MLPCN Grant: Fast-track/HHSN271700800025C PI: Bryan Roth and Bob Lefkowitz
Tango cells were dispensed into white, solid, tissue-culture-treated 1536-well plates at 1500 cells/well in DMEM, containing 1% fetal bovine serum (FBS). Then, 23 nL of compounds or DMSO were delivered to each well using a pin tool. Plates were incubated at 37 degrees C, 5% CO2 for 18 hr. Then 2.5 uL luminescent substrate mix (in-house prepared: 150 mM Tris-Cl, pH 7.6, 3 mM MgCl2, 1% Triton X-100, 5 mM DTT, 0.5 mM CoA, 0.15 mM ATP, 0.44 mM D-luciferin, final concentrations) was added to each well. Plates were then incubated for 15 minutes at room temperature, and subsequently measured on a ViewLux plate reader for luminescent signal using a clear filter with a 10 second exposure and 2x binning. The %Activity was determined from the corrected luminescence values. […] Concentration-response curves were fitted to the signals arising from the resulting luminescence. The concentration-effect curves were then classified based on curve quality (r2), response magnitude and degree of measured activity, and compounds were subsequently categorized based on their curve class.

Compound | activation
O=C(NCC1(N2CCOCC2)CCCCC1)c1ccccc1Br | inactive: -3.59%
CCCCOc1ccccc1C(=O)NCC1(N2CCOCC2)CCCCC1 | inactive: -3.47%
CCCOc1cccc(C(=O)NCC2(N3CCOCC3)CCCCC2)c1 | inactive: 0.941%
CCOc1ccc(C(=O)NCC2(N3CCOCC3)CCCCC2)cc1 | inactive: -2.96%
O=C(NCC1(N2CCOCC2)CCCCC1)c1ccc(Cl)cc1 | inactive: -2.47%
COc1ccccc1C(=O)NCC1(N2CCOCC2)CCCCC1 | inactive: -4.66%
COc1cc(C(=O)NCC2(N3CCOCC3)CCCCC2)cc(OC)c1OC | inactive: -2.85%
CC(C)(C)c1ccc(C(=O)NCC2(N3CCOCC3)CCCCC2)cc1 | inactive: -3.85%
Cc1ccccc1C(=O)NCC1(N(C)C)CCCCC1 | inactive: -0.635%
CN(C)C1(CNC(=O)c2ccc(C(C)(C)C)cc2)CCCCC1 | inactive: -2.5%
O=C(NCC1(N2CCOCC2)CCCCC1)c1ccccc1 | inactive: -2.89%
O=C(NCC1(N2CCOCC2)CCCCC1)c1ccc([N+](=O)[O-])cc1 | inactive: -4.06%
O=C(NCC1(N2CCOCC2)CCCCC1)c1ccccc1[N+](=O)[O-] | inactive: -3.69%
